Results as given in patent US10787490B2, “Peptide inhibitors of interleukin-23 receptor and their use to treat inflammatory diseases” (Protagonist Therapeutics, Inc., priority 2015, dated 2020).
Where two headings read alike, the source gives them in different places.

By UniProt entry, the sequences of proteins in these tests, tags left out. Residues count along the entry.
UniProt Q5VWK5, 24-354 limits assumed, looked up: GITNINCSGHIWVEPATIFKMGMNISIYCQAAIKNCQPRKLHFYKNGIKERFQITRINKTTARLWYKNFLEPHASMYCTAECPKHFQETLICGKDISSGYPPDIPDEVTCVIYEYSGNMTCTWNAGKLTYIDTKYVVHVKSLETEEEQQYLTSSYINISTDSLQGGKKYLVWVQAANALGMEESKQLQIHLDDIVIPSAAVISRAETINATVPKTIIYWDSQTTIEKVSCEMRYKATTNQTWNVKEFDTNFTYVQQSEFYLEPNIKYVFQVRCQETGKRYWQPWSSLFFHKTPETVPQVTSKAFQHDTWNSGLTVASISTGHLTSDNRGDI
UniProt Q5VWK5, 24-629 limits assumed: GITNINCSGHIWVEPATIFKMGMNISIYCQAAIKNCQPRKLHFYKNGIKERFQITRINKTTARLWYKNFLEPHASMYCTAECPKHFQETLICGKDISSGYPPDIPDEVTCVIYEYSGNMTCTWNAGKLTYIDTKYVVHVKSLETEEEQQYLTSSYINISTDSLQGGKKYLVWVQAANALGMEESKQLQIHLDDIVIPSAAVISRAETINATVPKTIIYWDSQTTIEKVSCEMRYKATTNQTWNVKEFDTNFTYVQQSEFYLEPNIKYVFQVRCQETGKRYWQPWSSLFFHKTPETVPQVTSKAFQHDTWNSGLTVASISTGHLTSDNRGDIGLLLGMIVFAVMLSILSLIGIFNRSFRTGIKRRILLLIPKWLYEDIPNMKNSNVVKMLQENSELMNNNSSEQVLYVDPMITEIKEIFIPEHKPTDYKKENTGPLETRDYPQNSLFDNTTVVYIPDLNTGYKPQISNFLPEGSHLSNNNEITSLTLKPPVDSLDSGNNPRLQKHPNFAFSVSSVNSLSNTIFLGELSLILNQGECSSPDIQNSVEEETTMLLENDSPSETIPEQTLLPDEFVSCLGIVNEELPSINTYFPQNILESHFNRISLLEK

How the values were obtained:
[1] = target: T1, human IL-23R (IL23R_huFC) (Homo sapiens, UniProt Q5VWK5); experiment: biochemical; settings: Human ELISA IC50
[2] = target: IL-23R-expressing DB cells (Homo sapiens, UniProt Q5VWK5); experiment: cell-based; type: cell-based
[3] = target: T1, human IL-23R (IL23R_huFC)
[4] = tested on: TNBS-induced acute colitis, Sprague-Dawley rats; experiment: TNBS induced colitis in rat; type: in vivo
[5] = Table E3H, DB cells, IL-23 0.5 nM, read-out: pStat3 HTRF IC50
[6] = read-out: Human ELISA IC50, Table E4B, numeric bounds
[7] = Table E4B, class symbols, DB cells, IL-23 0.5 nM, read-out: pStat3 HTRF IC50

CC(=O)N[C@@H]1CCSC[C@@H](C(=O)N[C@@H](Cc2ccc(OCCN)cc2)C(=O)N[C@@H](Cc2ccc3ccccc3c2)C(=O)NC2(C(=O)N[C@@H](CCC(=O)O)C(=O)N[C@@H](CC(N)=O)C(=O)N[C@@H](CC(N)=O)C(N)=O)CCOCC2)NC(=O)[C@H](CCC(N)=O)NC(=O)[C@H](Cc2c[nH]c3ccccc23)NC(=O)[C@H]([C@@H](C)O)NC(=O)[C@@H](CCC(N)=O)NC1=O [SEQ ID NO: 980]
IC50 [1]: < 10 nM
IC50 ([2]; Cell assay (nM) Hu DB Cell (pSTAT3), IC50): 0.6 nM
IC50 ([2]; pStat3 HTRF IC50): < 10 nM

CC(=O)N[C@H]1CSSC[C@@H](C(=O)N[C@@H](Cc2ccc(O)cc2)C(=O)N[C@@H](Cc2c[nH]c3ccccc23)C(=O)N[C@@](C)(CCCN)C(=O)N[C@@H](CCC(=O)O)C(=O)N[C@@H](CC(N)=O)C(=O)NCC(N)=O)NC(=O)[C@H](CCC(N)=O)NC(=O)[C@H](Cc2c[nH]c3ccccc23)NC(=O)[C@H]([C@@H](C)O)NC(=O)[C@H](CCC(N)=O)NC1=O [compound 457]
IC50 [2, 5]: 12 nM

CC(=O)N[C@H]1CSSC[C@@H](C(=O)N[C@@H](Cc2ccc(O)cc2)C(=O)N[C@@H](Cc2c[nH]c3ccccc23)C(=O)N[C@@](C)(CCCN)C(=O)N[C@@H](CCC(=O)O)C(=O)N[C@@H](CC(N)=O)C(=O)NCC(N)=O)NC(=O)[C@H](CCC(N)=O)NC(=O)[C@H](Cc2c[nH]c3ccccc23)NC(=O)[C@H]([C@@H](C)O)NC(=O)[C@H](CCC(N)=O)NC1=O [compound 458]
IC50 [2, 5]: 7 nM

CC(=O)N[C@H]1CSSC[C@@H](C(=O)N[C@@H](Cc2ccc(O)cc2)C(=O)N[C@@H](Cc2c[nH]c3ccccc23)C(=O)N2CCC[C@@H]2C(=O)N[C@@H](CCC(=O)O)C(=O)N[C@@H](CC(N)=O)C(=O)NCC(N)=O)NC(=O)[C@H](CCC(N)=O)NC(=O)[C@H](Cc2c[nH]c3ccccc23)NC(=O)[C@H]([C@@H](C)O)NC(=O)[C@H](CCC(N)=O)NC1=O [compound 512]
IC50 ([3]; read-out: Human IL23/IL23R ELISA IC50, Table E3H): > 30000 nM

CC(=O)N[C@@H]1C(=O)N[C@@H](CCC(N)=O)C(=O)N[C@@H]([C@@H](C)O)C(=O)N[C@@H](Cc2c[nH]c3ccccc23)C(=O)N[C@@H](CCC(N)=O)C(=O)N[C@H](C(=O)N[C@@H](Cc2ccc(O)cc2)C(=O)N[C@@H](Cc2c[nH]c3ccccc23)C(=O)N(C)[C@@H](CCCNC(=N)N)C(=O)N[C@@H](CCC(=O)O)C(=O)N[C@@H](CC(N)=O)C(=O)NCC(N)=O)C(C)(C)SSC1(C)C [compound 550]
IC50 [3, 6]: > 30000 nM

CC(=O)N[C@@H](C)C(=O)N[C@@H]1C(=O)N[C@@H](CC(=O)O)C(=O)N[C@@H](Cc2c[nH]c3ccccc23)C(=O)N[C@@H](C(C)C)C(=O)N[C@H](C(=O)N[C@@H](Cc2ccc(O)cc2)C(=O)N[C@@H](Cc2c[nH]c3ccccc23)C(=O)N[C@@H](CCCN)C(=O)N[C@@H](CN)C(=O)N[C@@H](Cc2ccccc2)C(=O)NCC(=O)NCCOCC(=O)N[C@H](CCCCN)C(N)=O)C(C)(C)SSC1(C)C [compound 553]
IC50 [3, 6]: > 30000 nM

CC(=O)NCCCC[C@H](NC(=O)C(C)(C)NC(=O)[C@H](Cc1ccc2ccccc2c1)NC(=O)[C@H](Cc1ccc(OCCN)cc1)NC(=O)[C@H]1NC(=O)[C@H](CCC(N)=O)NC(=O)[C@H](Cc2c[nH]c3ccccc23)NC(=O)[C@H]([C@@H](C)O)NC(=O)[C@H](CCC(N)=O)NC(=O)[C@@H](NC(=O)[C@H](Cc2ccc3ccccc3c2)NC(C)=O)C(C)(C)SSC1(C)C)C(=O)N[C@@H](CC(N)=O)C(=O)N[C@@H](CC(N)=O)C(N)=O [compound 648]
IC50 [2, 7]: < 10 nM

CC(=O)NCCCC[C@H](NC(=O)C(C)(C)NC(=O)[C@H](Cc1ccc2ccccc2c1)NC(=O)[C@H](Cc1ccc(OCCN)cc1)NC(=O)[C@H]1NC(=O)[C@H](CCC(N)=O)NC(=O)[C@H](Cc2c[nH]c3ccccc23)NC(=O)[C@H]([C@@H](C)O)NC(=O)[C@H](CCC(N)=O)NC(=O)[C@@H](NC(=O)[C@@H](NC(C)=O)[C@@H](C)O)C(C)(C)SSC1(C)C)C(=O)N[C@@H](CC(N)=O)C(=O)N[C@@H](CC(N)=O)C(N)=O [compound 649]
IC50 [2, 7]: < 10 nM

CC(=O)NCCCC[C@H](NC(=O)C(C)(C)NC(=O)[C@H](Cc1ccc2ccccc2c1)NC(=O)[C@H](Cc1ccc(OCCN)cc1)NC(=O)[C@H]1NC(=O)[C@H](CCC(N)=O)NC(=O)[C@H](Cc2c[nH]c3ccccc23)NC(=O)[C@H]([C@@H](C)O)NC(=O)[C@H](CCC(N)=O)NC(=O)[C@@H](NC(=O)[C@H](CC(C)C)NC(C)=O)C(C)(C)SSC1(C)C)C(=O)N[C@@H](CC(N)=O)C(=O)N[C@@H](CC(N)=O)C(N)=O [compound 650]
IC50 [2, 7]: < 10 nM

CC(=O)NCCCC[C@H](NC(=O)[C@@](C)(NC(=O)[C@H](Cc1ccc2ccccc2c1)NC(=O)[C@H](Cc1ccc(C(N)=O)cc1)NC(=O)[C@H]1NC(=O)[C@H](CCC(N)=O)NC(=O)[C@H](Cc2c[nH]c3ccccc23)NC(=O)[C@H]([C@@H](C)O)NC(=O)[C@H](CCC(N)=O)NC(=O)[C@@H](NC(=O)[C@@H](CCCCN)NC(C)=O)C(C)(C)SSC1(C)C)C(C)C)C(=O)N[C@@H](CC(N)=O)C(=O)N[C@@H](CC(N)=O)C(N)=O [compound 667]
IC50 [2, 7]: 1000 to 10000 nM

CC(=O)N[C@@H]1C(=O)N[C@@H](CCCNC(=N)N)C(=O)N[C@@H]([C@@H](C)O)C(=O)N[C@@H](Cc2c[nH]c3ccccc23)C(=O)N[C@@H](CCC(N)=O)C(=O)N[C@H](C(=O)N[C@@H](Cc2ccc(O)cc2)C(=O)N[C@@H](Cc2c[nH]c3ccccc23)C(=O)N[C@@H](CCCNC(=N)N)C(=O)N[C@@H](CCCCN)C(=O)N[C@@H](Cc2ccccc2)C(=O)NCC(=O)NCCOCC(=O)N[C@H](CCCCN)C(N)=O)CSSC1(C)C [compound 1024]
IC50 ([2]; Cys/Pen peptides, read-out: p5tat3 HTRF): 100 to 1000 nM
IC50 ([3]; read-out: Human ELISA, Cys/Pen peptides, class symbols): 100 to 1000 nM

C[C@]12C=CC(=O)C=C1CC[C@@H]1[C@@H]2[C@@H](O)C[C@@]2(C)[C@H]1CC[C@]2(O)C(=O)CO [prednisolone, reference compound]
histopathology scores ([4]; Example 12): reduced
colon macroscopic score ([4]; Example 12, vs vehicle): significantly reduced
colon weight to colon length ratios ([4]; Example 12, vs vehicle): significant reduction
weight loss ([4]; Example 12, Peptide 1185 37 mg/kg/day PO, anti-IL-23p19 4 mg/kg ip, prednisolone 10 mg/day P.O., vs vehicle): prevented
